PubChem BioAssay AID651815 (National Center for Advancing Translational Sciences (NCATS), 2012)
The entries are a selection whose mix differs from that of the whole data set. Inconclusive results are not listed. The source made the active and inactive calls. Calls come from the whole dose curve; as a rule, active = well fitted inhibition curve with a large enough effect; inconclusive = small, poorly fitted or top-dose-only effect; inactive = no such curve, though single readings can be large or run the other way.

The chains behind the UniProt entries cited, without tags or fusion partners. Where a name states a change or a piece, a line headed by the entry shows the natural chain unless it says otherwise.
UniProt Q8IUX4: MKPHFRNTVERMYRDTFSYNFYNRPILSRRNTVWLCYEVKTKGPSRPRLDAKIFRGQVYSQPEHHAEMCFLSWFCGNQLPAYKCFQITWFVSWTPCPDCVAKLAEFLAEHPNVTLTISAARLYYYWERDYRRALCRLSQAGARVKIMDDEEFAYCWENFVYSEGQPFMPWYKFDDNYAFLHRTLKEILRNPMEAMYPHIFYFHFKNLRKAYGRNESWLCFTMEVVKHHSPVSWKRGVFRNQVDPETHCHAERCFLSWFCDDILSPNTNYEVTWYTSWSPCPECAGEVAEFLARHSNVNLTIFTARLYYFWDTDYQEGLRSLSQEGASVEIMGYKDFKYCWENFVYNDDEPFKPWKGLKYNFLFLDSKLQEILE

These compounds were tested against DNA dC->dU-editing enzyme APOBEC-3F (Homo sapiens) (UniProt Q8IUX4) (assay: qHTS for inhibitors of Vif-A3F interactions: Cherry picks counterscreen). Details: HeLa A3F-eYFP/Vif cells, eYFP fluorescence, 24 h.
Source text: The recent discovery and characterization of host restriction factors, which provide a potent defense to invading retroviruses, has provided new targets for antiviral drug development. APOBEC3G (A3G) and APOBEC3F (A3F) are potent cytidine deaminases that block HIV-1 replication; HIV-1 expresses the Vif protein, which counteracts A3G and A3F by binding to them and inducing their proteasomal degradation. The Vif-A3G and Vif-A3F interactions provide two potential targets for development of small molecules which can interfere with the ability of Vif to degrade A3G or A3F. […] To identify inhibitors that can interfere with Vif mediated degradation of A3G and A3F, we have developed Hela cell lines that stably express A3G or A3F tagged with eYFP at the C-terminal end (A3G-eYFP or A3F-eYFP, respectively) and Vif. In the absence of an inhibitor, Vif induces degradation of A3G-eYFP and A3F-eYFP, and the cells are not fluorescent. In the presence of an inhibitor, it is expected that Vif will be unable to degrade A3G-eYFP and/or A3F-eYFP, resulting in an increase in yellow fluorescence. […]
A3F-Vif cells were harvested from T225 flask and resuspended in phenol free OPTI-MEM medium with 5% FBS. […] After that, the plates were measured on Acumen Explorer (TTP Lab Tech). The fluorescence was detected by 488 nm/Ex and […].
Note: nearly all actives have a fitted effect of over 65% in size.
Potency is the fitted concentration of half-maximal effect.

SMILES | Potency
CC[n+]1c(/C=C/N(C)c2ccccc2)oc2ccccc21 | active: 5.8 µM
